Drawing on patent US5756537A (Parkash S. Gill, M.D., Inc., priority 1996, dated 1998), this text covers response to therapy and response for one substance.

Assay [1] relates to Kaposi's sarcoma. Nature of the assay: Example 3: HIV-negative person with KS. The class given is in vivo, human. The settings on record: HCG 5000 international units daily subcutaneously. An excerpt: Patient, a very fragile person presented with KS. Apparently the first site of disease was on the right foot with subsequent disease progression to all extremities, trunk, oral cavity, ears, eye lids, and genital organs. They also developed extensive edema of both lower extremities from KS. Other medical problems included hypertension, cardiac arrhythmia, congestive heart failure, and hypothyroidism.
Prior therapy included radiation therapy. The radiated areas included both feet and eye lids. […] Furthermore, KS continued to progress at various sites. Cytotoxic chemotherapy was given with combination chemotherapy consisting of bleomycin, vincristine and adriamycin.
On their insistence, they were first treated with human chorionic gonadotropin (HCG) at a dose of 5000 international units daily subcutaneously. […] The tumor was very extensive and had extensive oozing including blood stained material, which was foul smelling, from the extremities. In addition, they had nodular pedunculated lesions over extensive regions of the body. […] Premedication included dexamethasone, diphenhydramine, and cimetidine.
The tumor resolved completely after five doses of paclitaxel in a period of eight weeks. […] The patient subsequently developed eczema of the legs was treated with local therapy with partial response. […]

Assay [2] has as its system Kaposi's sarcoma. Nature of the assay: Example 4: person with KS. The class given is in vivo, human. The settings on record: intralesional HCG and topical cream of Vit D3 (Dovonex). The protocol:
The patient had extensive cutaneous KS with numerous tumor lesions. The patient had been treated with local therapy including laser therapy. As a result, they had numerous ulcerated tumor lesions. The patient was in severe pain and expressed a desire not to live.
Due to the lack of effective control of the extensive disease with local therapies, they were treated with liposomal daunorubicin (Doxil). […] There was no evidence of new lesions and the existing lesions regressed rapidly. They wished to stop therapy in order to avoid treatment related toxicity. […] They were thus retreated with Doxil, with the expectation that the tumors would respond again.
Due to very extensive disease, a representative area of tumor was monitored.

Turning to HCG: human chorionic gonadotropin (HCG), the response to therapy entry in assay [1] was “no response”. The response result in assay [2] is “limited local response but progressive systemic KS”.
